The values below come from patent US4618612A (Medosan Industrie Biochimiche Riunite S.p.A., priority 1983, dated 1986).

One may read the LD50 as the dose expected to kill half of the subjects tested. Low readings indicate greater toxicity, high ones lower toxicity.

Like-named read-outs stand apart in the source and are kept apart here.

The test system of one series is mice. Format: in vivo.
For a further series, the system named is rats. Format: in vivo.
The subject of a further series is gastric mucosa. Put plainly: Gastric tolerance (ulcerogenic activity). Conditions: 4 days; for Mean Severity: scale 0-5; for Gastric Damage index: vehicle 8. Format: in vivo, male Wistar rats. On the procedure:
This was studied by conducting tests of ulcerogenic activity in male Wistar rats, weighing 180 g on the average, in groups of 10 animals each. Three doses of each substance were given, and one group of animals was treated with vehicle only in a volume of 10 ml/kg bodyweight. Each dose was given orally for four consecutive days; on the fifth day, the rats were killed and autopsied. The ulcerogenic effect was assessed according to the following scale:
(1) each hemorrhage point ≥1 mm was evaluated as 1 lesion
(2) hemorrhage points smaller than 1 mm were counted as follows:
(b) from 1 to 19:2 lesions
(c) from 1 to 29:3 lesions
(2) gastric mucosa irritation: 1
(3) hemorrahge points <1 mm: 2
(4) hemorrhage points between 1 and 3 mm: 3
(5) hemorrhage points >3 mm: 4
This scale was used to calculate the following gastric damage index: [formula]

Turning to “1-Methyl-5-p-methylbenzoylpyrrol-2-acetate of 7-(3-oxypropyl)theophylline [(C)]”, the LD50 in the series with mice (I.P.) is recorded as 1,000 mg/kg; in the series with mice (OS), 1,340 mg/kg; with rats (I.P.) it was 920 mg/kg; in the series with rats (OS), 1,200 mg/kg. Moreover, the figures for the “% incidence 10” value in the series with gastric mucosa (50 mg/kg oral), with gastric mucosa (100 mg/kg oral) and in the series with gastric mucosa (200 mg/kg oral) were 7 %/10, 9 %/10 and 9 %/10, respectively. Besides, the “Gastric Damage index, second figure (after +; difference from vehicle)” value in the series on gastric mucosa (50 mg/kg oral) is listed as 2; with gastric mucosa (100 mg/kg oral), 6; in the series with gastric mucosa (200 mg/kg oral), 7. The “Mean No. lesions” value in the series on gastric mucosa (50 mg/kg oral) was found to be 1; in the series on gastric mucosa (100 mg/kg oral), 2; in the series on gastric mucosa (200 mg/kg oral), 2. Also, the “Mean Severity” value in the series on gastric mucosa (50 mg/kg oral) is reported as 2; in the series on gastric mucosa (100 mg/kg oral), 3; with gastric mucosa (200 mg/kg oral), 4. For the same substance, the “Gastric Damage index” value with gastric mucosa (50 mg/kg oral) was 10; with gastric mucosa (100 mg/kg oral) it was 14; in the series on gastric mucosa (200 mg/kg oral), 15.
